Laboratory results taken from BindingDB's records for patent US10208020 (Oncoarendi Therapeutics, 2019).

Chains of the proteins cited; added tags and fusions are not shown. Lines headed by an entry give the natural chain unless they say otherwise; changes in a name come on top.
UniProt Q13231: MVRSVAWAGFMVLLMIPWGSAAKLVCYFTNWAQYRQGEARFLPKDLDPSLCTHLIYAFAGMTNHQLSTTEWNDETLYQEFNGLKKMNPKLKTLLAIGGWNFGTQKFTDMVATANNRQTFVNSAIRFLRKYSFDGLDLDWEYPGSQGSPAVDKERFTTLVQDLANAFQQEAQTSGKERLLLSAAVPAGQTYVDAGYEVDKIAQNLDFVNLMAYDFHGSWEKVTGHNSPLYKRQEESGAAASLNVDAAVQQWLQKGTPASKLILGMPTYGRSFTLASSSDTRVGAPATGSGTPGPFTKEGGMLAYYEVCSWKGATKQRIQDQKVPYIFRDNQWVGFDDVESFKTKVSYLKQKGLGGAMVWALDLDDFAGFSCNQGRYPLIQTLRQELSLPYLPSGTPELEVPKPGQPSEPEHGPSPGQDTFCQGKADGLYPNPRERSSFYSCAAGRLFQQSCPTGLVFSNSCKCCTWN
UniProt Q9BZP6: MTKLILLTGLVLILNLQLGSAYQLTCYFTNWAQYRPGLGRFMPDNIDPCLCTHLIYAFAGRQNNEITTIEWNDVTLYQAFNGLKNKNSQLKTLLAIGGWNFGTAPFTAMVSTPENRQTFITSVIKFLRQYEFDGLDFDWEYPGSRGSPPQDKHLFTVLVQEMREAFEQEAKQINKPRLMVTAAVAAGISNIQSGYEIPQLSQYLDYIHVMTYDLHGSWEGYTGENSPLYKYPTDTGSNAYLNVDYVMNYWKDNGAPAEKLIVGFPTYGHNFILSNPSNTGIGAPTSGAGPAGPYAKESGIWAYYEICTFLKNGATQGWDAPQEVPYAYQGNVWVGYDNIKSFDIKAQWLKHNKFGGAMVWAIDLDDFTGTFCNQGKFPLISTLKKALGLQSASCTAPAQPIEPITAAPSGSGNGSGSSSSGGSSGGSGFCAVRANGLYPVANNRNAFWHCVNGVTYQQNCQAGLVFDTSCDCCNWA

How the values were obtained:
Chitotriosidase-1 = Chitotriosidase-1 (Homo sapiens, UniProt Q13231); assay: ASSAY_NAME: Human CHIT1 Activity Assay DESCRIPTION: An enzymatic assay with recombinant human CHIT1 was used in order to establish inhibitory activity of the compounds (Boot et al., 2001, JBC: 276). The assay was run in the 96-well plate format, each reaction in the total volume of 100 μL. 4-methylumbelliferyl β-D-N,N′,N″-triacetylchitotriose was used as a substrate for the e
[1] = molecular target: Acidic mammalian chitinase (Homo sapiens, UniProt Q9BZP6); assay: ASSAY_NAME: Human AMCase Activity Assay DESCRIPTION: An enzymatic assay with recombinant human AMCase was used in order to establish inhibitory activity of the compounds (Boot et al., 2001, JBC: 276). The assay was run in the 96-well plate format, each reaction in the total volume of 100 μL. 4-Methylumbelliferyl B-D-N,N′-diacetylchitobioside hydrate was used as a substrate for the enzym

SMILES	IC50 (Chitotriosidase-1)	IC50 [1]
NC(=O)[C@@H]1CN(C2CCN(c3nnc(N)[nH]3)CC2)C(Cc2ccc(Cl)cc2)CO1 (some centres not stated) [US10208020, Example 8]	in the range around 5500 nM	–
COC[C@H]1CN(C2CCN(c3nnc(N)[nH]3)CC2)C(Cc2ccc(Cl)cc2)CO1 (some centres not stated) [US10208020, Example 10]	–	< 100 nM
